Measured values: patent publication US8586620B2, “Substituted indole compounds having NOS inhibitory activity” (NeurAxon, Inc., priority 2005, dated 2013)
Where two headings read alike, the source gives them in different places.

Sequences of proteins named here, by UniProt entry; tags and fusion partners are left off. Residues count along the entry.
UniProt P29473, 2-1205 limits assumed: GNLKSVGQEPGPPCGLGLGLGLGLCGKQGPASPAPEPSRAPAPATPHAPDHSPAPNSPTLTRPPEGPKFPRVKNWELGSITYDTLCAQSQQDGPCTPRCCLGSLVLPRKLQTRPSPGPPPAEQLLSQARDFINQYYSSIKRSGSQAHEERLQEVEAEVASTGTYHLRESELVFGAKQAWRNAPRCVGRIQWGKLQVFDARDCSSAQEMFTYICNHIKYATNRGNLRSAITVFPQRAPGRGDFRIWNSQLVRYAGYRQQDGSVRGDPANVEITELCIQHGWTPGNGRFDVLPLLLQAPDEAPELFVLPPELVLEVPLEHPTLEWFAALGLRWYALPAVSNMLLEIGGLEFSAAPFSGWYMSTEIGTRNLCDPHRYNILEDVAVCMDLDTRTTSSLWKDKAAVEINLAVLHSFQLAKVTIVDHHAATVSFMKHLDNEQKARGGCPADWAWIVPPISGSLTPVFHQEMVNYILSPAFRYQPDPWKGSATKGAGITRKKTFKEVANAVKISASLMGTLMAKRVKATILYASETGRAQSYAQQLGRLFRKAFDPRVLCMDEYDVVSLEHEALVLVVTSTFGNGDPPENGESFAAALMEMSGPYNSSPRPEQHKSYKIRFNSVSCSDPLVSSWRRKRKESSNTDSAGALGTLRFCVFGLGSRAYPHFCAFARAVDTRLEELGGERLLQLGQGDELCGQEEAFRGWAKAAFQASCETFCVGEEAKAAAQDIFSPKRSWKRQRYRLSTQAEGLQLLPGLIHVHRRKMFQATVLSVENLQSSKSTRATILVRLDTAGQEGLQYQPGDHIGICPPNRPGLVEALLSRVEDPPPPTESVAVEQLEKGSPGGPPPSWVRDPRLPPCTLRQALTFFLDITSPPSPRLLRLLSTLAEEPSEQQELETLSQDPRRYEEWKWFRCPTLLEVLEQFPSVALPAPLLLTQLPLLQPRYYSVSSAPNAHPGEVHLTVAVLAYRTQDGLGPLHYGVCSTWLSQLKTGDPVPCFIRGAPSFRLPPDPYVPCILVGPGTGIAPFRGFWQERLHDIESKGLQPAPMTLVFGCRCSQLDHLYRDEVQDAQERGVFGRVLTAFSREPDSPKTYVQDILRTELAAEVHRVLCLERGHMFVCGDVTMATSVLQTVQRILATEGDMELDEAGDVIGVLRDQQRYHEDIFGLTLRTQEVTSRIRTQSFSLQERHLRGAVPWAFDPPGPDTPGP
UniProt P29476, whole entry: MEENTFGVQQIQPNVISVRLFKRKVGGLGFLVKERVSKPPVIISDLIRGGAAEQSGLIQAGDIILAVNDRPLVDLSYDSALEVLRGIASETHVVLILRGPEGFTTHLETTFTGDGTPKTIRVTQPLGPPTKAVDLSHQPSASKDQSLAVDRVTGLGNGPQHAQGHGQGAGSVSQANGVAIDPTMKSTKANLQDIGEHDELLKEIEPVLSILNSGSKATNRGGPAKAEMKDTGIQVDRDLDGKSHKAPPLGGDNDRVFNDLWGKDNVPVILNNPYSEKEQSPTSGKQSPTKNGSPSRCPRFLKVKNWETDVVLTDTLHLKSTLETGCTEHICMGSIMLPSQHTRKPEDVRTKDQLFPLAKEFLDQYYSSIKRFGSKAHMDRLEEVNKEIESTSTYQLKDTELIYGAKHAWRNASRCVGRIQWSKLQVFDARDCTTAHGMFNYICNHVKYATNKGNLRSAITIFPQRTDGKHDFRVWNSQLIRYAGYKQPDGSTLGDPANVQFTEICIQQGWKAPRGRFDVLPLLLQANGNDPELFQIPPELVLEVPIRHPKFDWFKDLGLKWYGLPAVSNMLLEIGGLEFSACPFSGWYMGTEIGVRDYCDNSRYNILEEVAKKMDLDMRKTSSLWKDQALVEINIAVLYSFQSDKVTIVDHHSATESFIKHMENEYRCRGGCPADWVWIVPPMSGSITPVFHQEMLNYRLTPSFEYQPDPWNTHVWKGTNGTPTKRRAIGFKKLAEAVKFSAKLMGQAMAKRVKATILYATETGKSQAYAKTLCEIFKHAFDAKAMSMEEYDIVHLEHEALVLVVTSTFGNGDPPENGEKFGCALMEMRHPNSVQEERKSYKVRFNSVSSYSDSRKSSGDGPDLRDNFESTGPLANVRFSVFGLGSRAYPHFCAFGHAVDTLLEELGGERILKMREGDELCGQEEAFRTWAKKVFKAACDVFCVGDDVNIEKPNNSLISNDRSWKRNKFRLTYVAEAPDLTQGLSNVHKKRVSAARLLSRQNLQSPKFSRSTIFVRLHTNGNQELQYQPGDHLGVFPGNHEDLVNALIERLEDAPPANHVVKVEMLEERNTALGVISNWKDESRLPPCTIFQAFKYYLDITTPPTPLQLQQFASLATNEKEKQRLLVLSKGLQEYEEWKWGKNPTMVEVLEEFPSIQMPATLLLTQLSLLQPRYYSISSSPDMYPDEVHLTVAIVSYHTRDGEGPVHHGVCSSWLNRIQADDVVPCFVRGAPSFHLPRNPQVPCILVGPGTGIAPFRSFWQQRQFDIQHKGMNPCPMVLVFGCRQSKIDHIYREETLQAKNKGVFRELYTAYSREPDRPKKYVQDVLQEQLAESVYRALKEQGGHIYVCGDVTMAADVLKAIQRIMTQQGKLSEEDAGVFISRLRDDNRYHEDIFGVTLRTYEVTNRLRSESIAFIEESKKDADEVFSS
UniProt P35228, whole entry: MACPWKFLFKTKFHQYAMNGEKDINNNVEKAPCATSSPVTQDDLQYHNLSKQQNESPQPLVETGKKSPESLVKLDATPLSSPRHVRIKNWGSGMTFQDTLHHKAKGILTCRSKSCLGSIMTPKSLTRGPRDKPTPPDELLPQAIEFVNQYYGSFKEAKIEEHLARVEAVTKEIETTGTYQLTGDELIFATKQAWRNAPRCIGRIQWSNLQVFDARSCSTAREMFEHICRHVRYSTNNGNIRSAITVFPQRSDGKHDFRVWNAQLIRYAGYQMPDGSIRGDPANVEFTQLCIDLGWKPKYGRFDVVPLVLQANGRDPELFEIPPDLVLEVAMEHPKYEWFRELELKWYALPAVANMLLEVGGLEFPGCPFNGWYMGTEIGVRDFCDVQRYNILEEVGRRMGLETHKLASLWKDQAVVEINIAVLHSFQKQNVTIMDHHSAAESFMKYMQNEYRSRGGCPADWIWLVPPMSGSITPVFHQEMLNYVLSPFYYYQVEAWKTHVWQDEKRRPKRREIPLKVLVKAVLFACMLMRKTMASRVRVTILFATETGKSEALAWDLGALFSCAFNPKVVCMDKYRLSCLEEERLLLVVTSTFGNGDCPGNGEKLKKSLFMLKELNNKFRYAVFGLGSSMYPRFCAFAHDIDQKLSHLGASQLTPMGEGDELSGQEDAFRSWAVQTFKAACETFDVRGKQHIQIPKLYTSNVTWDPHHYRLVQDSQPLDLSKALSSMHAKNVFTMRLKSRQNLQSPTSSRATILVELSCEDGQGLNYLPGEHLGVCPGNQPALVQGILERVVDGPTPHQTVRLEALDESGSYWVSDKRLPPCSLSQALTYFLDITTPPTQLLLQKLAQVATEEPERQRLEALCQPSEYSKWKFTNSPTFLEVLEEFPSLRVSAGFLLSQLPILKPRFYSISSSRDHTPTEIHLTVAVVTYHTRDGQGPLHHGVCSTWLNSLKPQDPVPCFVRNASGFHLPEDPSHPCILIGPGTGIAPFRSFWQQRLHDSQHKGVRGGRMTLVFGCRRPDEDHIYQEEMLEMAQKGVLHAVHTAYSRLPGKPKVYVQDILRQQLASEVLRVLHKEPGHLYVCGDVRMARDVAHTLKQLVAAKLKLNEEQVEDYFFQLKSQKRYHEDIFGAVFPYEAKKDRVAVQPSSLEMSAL
UniProt P29477, whole entry: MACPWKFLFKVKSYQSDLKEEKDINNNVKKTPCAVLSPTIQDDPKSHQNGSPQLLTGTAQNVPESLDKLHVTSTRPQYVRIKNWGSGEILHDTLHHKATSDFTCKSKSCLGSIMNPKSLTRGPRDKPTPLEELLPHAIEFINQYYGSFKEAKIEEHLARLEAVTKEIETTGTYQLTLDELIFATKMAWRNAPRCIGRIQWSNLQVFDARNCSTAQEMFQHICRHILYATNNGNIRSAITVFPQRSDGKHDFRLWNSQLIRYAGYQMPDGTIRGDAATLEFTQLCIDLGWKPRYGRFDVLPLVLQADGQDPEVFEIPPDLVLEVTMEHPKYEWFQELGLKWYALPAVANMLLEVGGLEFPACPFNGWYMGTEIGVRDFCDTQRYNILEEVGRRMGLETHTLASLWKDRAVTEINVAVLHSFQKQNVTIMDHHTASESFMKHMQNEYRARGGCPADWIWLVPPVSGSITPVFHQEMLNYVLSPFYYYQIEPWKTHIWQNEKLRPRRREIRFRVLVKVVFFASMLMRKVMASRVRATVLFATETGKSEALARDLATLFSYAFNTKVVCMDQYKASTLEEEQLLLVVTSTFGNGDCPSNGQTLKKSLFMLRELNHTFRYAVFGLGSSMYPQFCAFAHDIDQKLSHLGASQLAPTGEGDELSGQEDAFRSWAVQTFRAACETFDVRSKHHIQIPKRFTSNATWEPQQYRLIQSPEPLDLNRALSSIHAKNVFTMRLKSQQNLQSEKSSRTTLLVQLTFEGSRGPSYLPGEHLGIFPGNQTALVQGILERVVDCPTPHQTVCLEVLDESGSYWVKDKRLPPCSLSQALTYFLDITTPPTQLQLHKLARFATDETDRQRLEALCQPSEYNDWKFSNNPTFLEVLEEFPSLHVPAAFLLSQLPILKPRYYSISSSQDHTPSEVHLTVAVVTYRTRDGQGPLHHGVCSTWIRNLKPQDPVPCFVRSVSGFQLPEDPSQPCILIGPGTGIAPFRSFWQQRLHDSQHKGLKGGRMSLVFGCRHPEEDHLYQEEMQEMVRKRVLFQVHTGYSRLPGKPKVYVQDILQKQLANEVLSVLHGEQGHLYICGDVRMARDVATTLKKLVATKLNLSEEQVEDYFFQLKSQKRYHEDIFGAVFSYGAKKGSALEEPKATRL

Tests used:
bovine eNOS = bovine eNOS (Bos taurus (Bovine), UniProt P29473); experiment: Bovine eNOS hemoglobin capture assay; format: biochemical
[1] = test system: rat cortical neuronal cultures; experiment: Neuroprotection of rat cortical cells against NMDA challenge; conditions: 60-minute pre-incubation; 30 minutes 25 μM NMDA; propidium iodide after 24 hrs; FIG. 1
Rat nNOS = Rat nNOS (Rattus norvegicus (Rat), UniProt P29476); experiment: Rat nNOS hemoglobin capture assay
CA1 hippocampal slices = experiment: Evoked field potentials in CA1 hippocampal slices after OGD
Neuronal cultures = experiment: Neuroprotection after oxygen-glucose deprivation (OGD), neuronal cultures; conditions: 25 μM; 90-minute OGD; 60-minute pre-incubation; propidium iodide after 24 hours; FIG. 2
[2] = test system: L5/L6 spinal nerve ligation; experiment: Chung spinal nerve ligation (SNL) model of neuropathic pain; conditions: rats
NMDA-induced currents = experiment: NMDA-induced whole-cell currents in rat cortical neurons; conditions: dose-dependent, FIG. 4
[3] = target: human inducible NOS (iNOS) (Homo sapiens (Human), UniProt P35228); experiment: Human iNOS enzyme assay, radiometric; conditions: read-out: Human iNOS; Table 2b
[4] = test system: NMDA-induced Ca^2+ influx; experiment: NMDA induced Ca2+ influx, Fluo-4FF; conditions: 10-50 μM; NMDA 25 μM, 15 minute; FIG. 3
murine macrophage iNOS = murine macrophage iNOS (Mus musculus (Mouse), UniProt P29477); experiment: Murine iNOS hemoglobin capture assay
[5] = test system: formalin-induced hind paw licking; experiment: Formalin-induced paw licking in mice; format: in vivo; conditions: intraperitoneally 30 minutes before formalin, Phase II (20 to 30 minute), FIG. 5
Hippocampal slices = experiment: Mitochondrial metabolic activity in hippocampal slices after OGD, TTC staining; conditions: 50 μM; 10 min OGD; control live normalized to 100%; n=8
traumatic brain injury = experiment: Mouse model of traumatic brain injury (TBI)
[6] = read-out: Bovine eNOS, Table 2a
[7] = One hour after TBI, s.c. 5 minutes post-injury
[8] = read-out: Murine iNOS, Table 2a, tested form: HCl
[9] = read-out: Rat nNOS, Table 2a, tested form: HCl

N=C(Nc1ccc2ccn(CCN3CCCC3)c2c1)c1cccs1
IC50 (bovine eNOS; [6]): 29.2 µM | protection of neuronal cells from death upon NMDA challenge [1]: protected neuronal cells from death | IC50 (Rat nNOS; read-out: Rat nNOS, Table 2a): 9.4 µM

CN(C)CCn1ccc2ccc(NC(=N)c3cccs3)cc21
PS amplitude (CA1 hippocampal slices; 50 μM, slices exposed to 10 min OGD, n=3): 2.1±1.5 mV | preservation of population spike (CA1 hippocampal slices; slices after 10 min OGD, compound 12 50 μM, 7-NI 100 μM, FIG. 16): preservation of population spike | protection of neurons against OGD insult (Neuronal cultures): protected neurons | IC50 (bovine eNOS; [6]): 211 µM | tactile hyperthesia ([2]; L5/L6 spinal nerve ligation, FIGS. 20 and 22): reversal of tactile hyperthesia | thermal hyperalgesia ([2]; one standard dose (10 mg/kg) injected IP, FIG. 19, 21): clear antihyperalgesic effect | block of NMDA-induced currents (NMDA-induced currents): effectively blocked NMDA-induced currents | protection of neuronal cells from death upon NMDA challenge [1]: protected neuronal cells from death | IC50 [3]: 60 µM | inhibition of NMDA-induced Ca^2+ influx [4]: dose-dependent (10-50 μM) inhibition | IC50 (murine macrophage iNOS; read-out: Murine iNOS, Table 2a): 109 µM | IC50 (Rat nNOS; read-out: Rat nNOS, Table 2a): 8.8 µM | formalin-induced hind paw licking [5]: reduction in the frequency of paw licking | absorbance retained (TTC staining) (Hippocampal slices): 92±18% | Hall score (traumatic brain injury; 4 hours after TBI, 6 mg/kg s.c.): significant improvement | grip score (traumatic brain injury; 4 hours following TBI, 3 mg/kg s.c.): significant improvement | grip score (traumatic brain injury; 4 hours following TBI, 6 mg/kg s.c.): trend towards improvement | string score (traumatic brain injury; 4 hours following TBI, 3 and 6 mg/kg s.c.): significant improvement | body weight (traumatic brain injury; 24 hours after TBI, 3 mg/kg): significant improvement in body weight | string, grip and Hall scores (traumatic brain injury; 24 hours after TBI, single s.c. dose): non-significant trend towards improvement | body temperature (traumatic brain injury; 24 hours post TBI, low-dose 1 mg/kg, vs uninjured or 3 or 6 mg/kg): lower body temperature | Hall score (traumatic brain injury; [7]): no significant improvement | string score (traumatic brain injury; [7]): no significant improvement | body temperature (traumatic brain injury; One hour post TBI, treated vs control injured mice): no difference between treated and control mice

CCSC(=N)Nc1ccc2ccn(CCN(C)C)c2c1
IC50 (murine macrophage iNOS; [8]): 56 µM | IC50 (Rat nNOS; [9]): 2.3 µM

N=C(Nc1ccc2ccn(CCNCCc3ccc(Br)cc3)c2c1)c1cccs1
IC50 (bovine eNOS; read-out: Bovine eNOS, Table 2a, tested form: HCl): 103 µM | IC50 (murine macrophage iNOS; [8]): 213 µM | IC50 (Rat nNOS; [9]): 3.7 µM
